Results on 13 compounds are retold here after PubChem BioAssay AID686979 (National Center for Advancing Translational Sciences (NCATS), 2013).

SMILES strings stand for the structures. “And” between values parts separate entries of the source, which are not always exact repeats. Identical values can stand only once. The entries are a selection whose mix differs from that of the whole data set. Records with an inconclusive call do not appear. More than one record can exist for a structure, and the calls need not agree. The source made the active and inactive calls. Calls come from the whole dose curve; as a rule, active = well fitted inhibition curve with a large enough effect; inconclusive = small, poorly fitted or top-dose-only effect; inactive = flat fitted curve, though single readings scatter.
Potency is the fitted concentration of half-maximal effect.

The assay is described as follows: qHTS for Inhibitors of human tyrosyl-DNA phosphodiesterase 1 (TDP1): qHTS in cells in presence of CPT. Note: nearly all actives have a fitted effect of over 55% in size. The conditions noted are these: chicken DT40 Tdp1-/-;hTDP1 cells + 20 nM CPT, ATP luminescence, 48 h; series mostly up to 46.2 µM. Background: In qHTS, concentration-response curves come from the screen itself.
As for `CN1CCC(=C2c3ccccc3CCc3sccc32)CC1`, the Potency entry is “inactive”.
For the compound `Clc1ccc(N2CCN(Cc3c[nH]c4ncccc34)CC2)cc1`, the Potency result was “inactive and active: 4.11 µM”.
As to `CC[n+]1c(/C=C/Nc2ccccc2)oc2ccc(OC)cc21`, the Potency is active: 9.2 µM.
In the case of `CC(C(O)c1ccc(O)cc1)N1CCC(Cc2ccccc2)CC1` (stereo not drawn) it was active: 8.41 µM and active: 13 µM.
In the case of `CN(Cc1cnc2nc(N)nc(N)c2n1)c1ccc(C(=O)NC(CCC(=O)O)C(=O)O)cc1` (stereo not drawn) it was active: 46.1 nM and active: 36.6 nM; in that of `COc1cc(NCCCCCCCN)c2ncccc2c1`, active: 20.6 µM.
In the case of `Nc1nccc(NCCSCc2ccccc2)n1` it was active: 20.6 µM; in that of `CC[n+]1c(/C=C/N(C)c2ccccc2)oc2ccc(Cl)cc21`, active: 2.91 µM.
In the case of `CC(=O)C1=NN(c2ccccc2)C(c2ccc3c(c2)OCO3)N1c1ccc(N2CCOCC2)cc1` (stereo not drawn), the Potency was active: 23.1 µM.
In the case of `CN1CCN(C2=Nc3ccccc3Oc3ccc(Cl)cc32)CC1` it was “inactive”; in that of `COc1ccc(Nc2nc(Nc3ccc(OC)cc3)nc(SC3=NCCS3)n2)cc1`, active: 23.1 µM; in that of `CC[n+]1c(/C=C/N(C)c2ccccc2)oc2ccccc21`, active: 0.731 µM.
For the compound `CCN(CC)CCCC(C)Nc1c2ccc(Cl)cc2nc2ccc(OC)cc12` (stereo not drawn), the Potency is active: 5.62 µM and active: 2.91 µM.
